Experiments:
[1] = molecular target: human GYS1 (glycogen synthase) (Homo sapiens, UniProt P13807); test: Measurement of glycogen synthase activity; conditions: concentration causing 50% increase in relative activity; 100% = compound of Example 1 of WO/2011/058154 at 10 μM; 10 mM Glucose-6-phosphate; 37° C. for 25 minutes (Examples 1 to 61 and 67 to 82) or 20 minutes (Examples 62 to 66); absorbance at 340 nm
Description: A human GYS1 expression plasmid (pCDNA3.1(+)-hGYS1) was constructed by the following method. By using a human skeletal muscle cDNA of Human MTC Panel I (Takara Bio Inc., 636742) as a template, a human GYS1 gene was amplified by a PCR method using cloning primers (Forward Primer: ATGCCTTTAAACCGCAC, Reverse Primer: TTAGTTACGCTCCTCGC). By using the amplified human GYS1 sequence as a template, restriction enzyme sequences were added by a PCR method using sub-cloning primers (Forward Primer: […], and Reverse Primer: […]), and then the human GYS1 gene was introduced between Xho I and Xba I sites of pCDNA3.1(+) (Invitrogen, V790-20).
Glycogen synthase was prepared by the following method. […]
The glycogen synthase activity was measured by the following method. […]
Moreover, an enzyme solution containing 50 mM Tris-HCl (pH 8.0), 27 mM DTT (NACALAI TESQUE, INC., 14128-04), 0.2 mg/mL bovine serum albumin, 0.17 mg/mL glycogen synthase, and 1.5 μL pyruvate kinase/lactate dehydrogenase solution (Sigma-Aldrich, P0294) was added at 18 μL/well to prepare reaction solutions. After the reaction solutions were incubated (at 37° C. for 25 minutes for Examples 1 to 61 and 67 to 82 or at 37° C. for 20 minutes for Examples 62 to 66), the absorbance at 340 nm was measured by using Benchmark Plus (Bio-Rad Laboratories, Inc.).
The activity of each test compound was calculated by the following method. […]

Amino acid sequences for entries named in this document (tags omitted). Residues count along the entry.
UniProt P13807, whole entry: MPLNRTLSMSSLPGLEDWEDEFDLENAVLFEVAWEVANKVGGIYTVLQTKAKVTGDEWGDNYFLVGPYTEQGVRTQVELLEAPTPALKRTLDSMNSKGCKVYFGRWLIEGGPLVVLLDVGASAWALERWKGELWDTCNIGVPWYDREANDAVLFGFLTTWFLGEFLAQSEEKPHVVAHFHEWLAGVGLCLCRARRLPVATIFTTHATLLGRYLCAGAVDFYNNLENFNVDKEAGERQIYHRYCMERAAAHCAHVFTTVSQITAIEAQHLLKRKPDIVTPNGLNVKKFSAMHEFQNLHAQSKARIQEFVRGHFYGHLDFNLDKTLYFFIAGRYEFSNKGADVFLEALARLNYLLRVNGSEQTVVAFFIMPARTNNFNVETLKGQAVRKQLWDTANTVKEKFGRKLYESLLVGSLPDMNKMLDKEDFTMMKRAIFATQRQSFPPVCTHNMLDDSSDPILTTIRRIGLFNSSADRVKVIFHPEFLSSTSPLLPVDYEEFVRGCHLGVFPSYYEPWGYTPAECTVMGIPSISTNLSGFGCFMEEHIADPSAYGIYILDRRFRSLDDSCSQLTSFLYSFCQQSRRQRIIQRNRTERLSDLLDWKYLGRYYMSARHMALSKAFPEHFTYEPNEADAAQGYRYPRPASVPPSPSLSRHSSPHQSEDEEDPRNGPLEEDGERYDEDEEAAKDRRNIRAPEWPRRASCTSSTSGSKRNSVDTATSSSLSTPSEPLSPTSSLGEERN
UniProt Q07869, 167-468 limits assumed: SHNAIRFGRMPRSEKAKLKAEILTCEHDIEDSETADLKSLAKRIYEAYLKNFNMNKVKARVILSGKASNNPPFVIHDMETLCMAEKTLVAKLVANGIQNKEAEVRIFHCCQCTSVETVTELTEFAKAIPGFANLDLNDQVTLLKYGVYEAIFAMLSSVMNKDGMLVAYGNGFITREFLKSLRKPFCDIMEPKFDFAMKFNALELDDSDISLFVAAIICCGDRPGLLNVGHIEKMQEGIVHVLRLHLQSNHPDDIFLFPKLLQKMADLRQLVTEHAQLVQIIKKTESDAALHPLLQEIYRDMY

PPAR-α = PPAR-α (Homo sapiens, UniProt Q07869); test: Measurement of PPAR-α activity (GAL4 luciferase reporter assay in CV-1 cells); conditions: 100(A/B): A = maximum PPAR-α activity of test compound at 3, 10, 30 and 100 μM, B = activity of the compound of WO/2011/058154 at 100 μM, 18 to 20 hours
Description: The PPAR-α activity was measured according to the published article (THE JOURNAL OF BIOLOGICAL CHEMISTRY Vol. 270, No 0.22: 12953-12956, 1995).
Plasmids used for the PPAR-α activity measurement were constructed as follows. A luciferase expression plasmid (UAS×5-TK-Luc) used was obtained by introducing a sequence in which five yeast GAL4-binding sequences are linked in tandem into a portion upstream of a thymidine kinase promoter of pTAL-Luc (Takara Bio Inc., 6252-1). A PPAR-α receptor expression plasmid (hGR-GAL4-hPPARα) used was obtained by introducing a human GR N-terminal region (1-76aa), a yeast GAL4 DNA-binding region (1-147aa), and a PPARα ligand-binding region (167-468aa) between Not I and Sal I sites of pExchange-1 Core Vector (Invitrogen, 211176).
A reporter assay was conducted by the following method using African green monkey kidney-derived CV-1 cells. The CV-1 cells were seeded in a 96-well plate (Thermo Fisher Scientific K.K., 4938) at 2×10^4 cells/well by using a 10% FBS-containing DMEM (NACALAI TESQUE, INC., 0845874) medium. After culturing under conditions of 37° C. and 5% CO2 for 2 hours, the cells were transfected with the plasmids. […] After the culturing, the luciferase activity was measured with Luminescensor JNR (ATTO) by using Bright-Glo (Promega, E2620).
The fold induction of PPAR-α by each test compound was calculated by the following method. […]

[2] = test system: Rat skeletal muscle-derived L6 myoblasts (differentiated into myotube cells); test: Evaluation of glycogen accumulation in L6; conditions: [14C] glycogen from D-[U-C14] glucose, 3 hours incubation, 100% = compound of Example 1 of WO/2011/058154 at 30 μM
Description: The glycogen accumulation activity was evaluated in skeletal muscle cells according to the published article (ANALYTICAL BIOCHEMISTRY, Vol. 261: 159-163, 1998) by the following method. Rat skeletal muscle-derived L6 myoblasts (ATCC) were seeded in a 96-well collagen-coated plate (IWAKI, 4860-010) by using a growth medium (10% FBS-containing α-MEM medium (NACALAI TESQUE, INC., 21444-05)) under a condition of 4×10^4 cells/100 μL/well. After culturing under conditions of 37° C. and 5% CO2 overnight, the medium was replaced with a differentiation medium (2% FBS-containing α-MEM medium), followed by culturing for 3 days to differentiate the myoblasts into myotube cells. […] After ethanol remaining on the filter was completely removed by drying, MicroScint40 (PerkinElmer Inc.) was added at 50 μL/well, the amount of [14C] glycogen was measured with TopCountNXT (PerkinElmer Inc.). The activity of each test compound was calculated by the following method. Specifically, the relative activity (%) was calculated as 100×(B−A)/(C−A), where A represents a value (cpm) measured for a well not containing the compound but containing only DMSO, B represents a value measured for a well containing the compound and DMSO, and C represents a value measured for a well containing the compound of Example 1 of WO/2011/058154 at a final concentration of 30 μM. […]

EC50 [1]: 0.051 to 0.17 µM
Relative fold induction (%) of PPAR α (PPAR-α): 100%
Structure (SMILES): O=C(O)[C@@H]1CCCN1C(=O)c1cccc(COc2ccc(-c3ccc(F)cc3F)cc2)c1
EC50 [2]: 14 to 16 µM

From patent US20160046592A1, “PHARMACEUTICAL COMPOSITION FOR THE TREATMENT OF DIABETES” (Ajinomoto Co., Inc., priority 2013, published 2016)
